T1: metallo-beta-lactamase (beta-lactamase II) 5/B/6 (Bacillus cereus, UniProt P14488 P14488:30-256)
T1 sequence: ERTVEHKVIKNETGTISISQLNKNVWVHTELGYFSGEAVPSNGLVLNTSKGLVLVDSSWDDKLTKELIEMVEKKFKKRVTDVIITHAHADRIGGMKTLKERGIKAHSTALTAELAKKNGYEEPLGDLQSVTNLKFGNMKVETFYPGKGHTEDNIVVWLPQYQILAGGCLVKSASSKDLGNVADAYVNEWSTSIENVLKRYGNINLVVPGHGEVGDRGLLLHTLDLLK


Biological target: T1, metallo-beta-lactamase (beta-lactamase …)
Assay: inhibition
Details: tags: strain 5/B/6; zinc class B enzyme

Binder | IC50 [nM]
CCAAACTTGG (ssDNA) [10-mer] | 1.2
AACCAAACTTGGATCGGTGCACATGTCGAA (ssDNA) [30-mer aptamer] | 1.2

— patent US20050202434 (published 2005)
